The entries are a selection whose mix differs from that of the whole data set. Activity calls are given as the source filed them. No stated cut-off is given here; in the data, active means inhibition above about 29%; inactive means the rest.
target: Sphingosine 1-phosphate receptor 4 (Homo sapiens) (UniProt O95977); experiment: blockers of human S1P4 receptor – cell-based, primary screen (AID 1510); settings: S1P4-expressing cells, antagonist mode, reporter read-out; at 4.98 µM; hits give high values;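 further: 0% = wells stimulated with agonist and 100% = vehicle wells without agonist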

Protein sequences, listed by entry. Tags and fused reporters are not part of them.
UniProt O95977, whole entry: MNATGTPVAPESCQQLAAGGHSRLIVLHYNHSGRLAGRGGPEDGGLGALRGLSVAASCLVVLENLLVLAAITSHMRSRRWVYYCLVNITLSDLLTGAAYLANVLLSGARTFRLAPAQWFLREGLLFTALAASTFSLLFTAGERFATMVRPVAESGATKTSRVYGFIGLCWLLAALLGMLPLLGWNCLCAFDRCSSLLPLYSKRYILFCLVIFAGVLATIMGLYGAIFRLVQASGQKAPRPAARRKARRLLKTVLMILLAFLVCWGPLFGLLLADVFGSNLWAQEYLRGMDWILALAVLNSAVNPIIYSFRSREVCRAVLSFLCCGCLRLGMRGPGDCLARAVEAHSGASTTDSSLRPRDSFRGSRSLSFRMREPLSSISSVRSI

Row | SMILES | inhibition
1 | O=C(OCCN1CCN(CCOCc2ccccc2)CC1)C(O)(c1ccccc1)c1ccccc1 | inactive: -23.1%
2 | O=C(OC1CN2CCC1CC2)c1ccc([N+](=O)[O-])cc1 (stereo not drawn) | inactive: -1.75%
3 | CC(C)c1ccc(OP(C)(=O)Nc2ccc(SC(F)(F)F)cc2)cc1 (stereo not drawn) | inactive: -11.1%
4 | CP(=O)(Nc1ccccc1F)Oc1ccccc1 (stereo not drawn) | inactive: 6.14%
5 | CCCCCOc1ccc(NP(C)(=O)Oc2ccc(Cl)cc2Cl)cc1 (stereo not drawn) | inactive: -8.39%
6 | CP(=O)(Nc1ccccc1)Oc1ccc(F)cc1 (stereo not drawn) | inactive: 9.29%
7 | CCN(CC)CCCOC(=O)C(O)(c1ccccc1)C1CCCCC1 (stereo not drawn) | inactive: 1.72%
8 | COc1ccc(OP(C)(=O)Nc2ccc(SC(F)(F)F)cc2)cc1 (stereo not drawn) | inactive: 1.61%
9 | CCOC(=O)c1ccc(NP(C)(=O)Oc2ccc(F)cc2)cc1 (stereo not drawn) | inactive: -2.85%
10 | O=[N+]([O-])c1cc([N+](=O)[O-])c(NCC2CCS(=O)(=O)C2)c([N+](=O)[O-])c1 (stereo not drawn) | inactive: -14.8%
11 | Cc1cc(-c2cccc3ccccc23)c(C)cn1.O=[N+]([O-])c1cc([N+](=O)[O-])c(O)c([N+](=O)[O-])c1 | inactive: 6.3%
12 | O=[N+]([O-])c1ccc(OP2(=O)COCCO2)cc1 (stereo not drawn) | inactive: -4.73%
13 | COc1ccc(NP(C)(=O)Oc2ccccc2OC)cc1 (stereo not drawn) | inactive: -2.05%
14 | CN(C)CCOC(=O)C(O)(c1ccccc1)C1CCCCC1 (stereo not drawn) | inactive: 1.48%
15 | COc1ccc(OP(C)(=O)Nc2cccc(Br)c2)cc1 (stereo not drawn) | inactive: -8.05%
16 | Cc1ccccc1NP(C)(=O)Nc1ccccc1C | inactive: -4.09%
17 | CP(=O)(Nc1ccc2c(c1)OCCO2)Oc1ccccc1 (stereo not drawn) | inactive: -2.72%
18 | CCOP(C)(=S)SCC(=O)NC(C)(CC)C(=O)O (stereo not drawn) | inactive: -3.91%
19 | CP(=O)(Nc1ccc(SC(F)(F)F)cc1)Oc1ccc(F)cc1 (stereo not drawn) | inactive: -7.33%
20 | CN(C)C(=O)c1c([N+](=O)[O-])cc([N+](=O)[O-])cc1[N+](=O)[O-] | inactive: 13.5%
21 | CP(=O)(Nc1ccc(Cl)cc1)Oc1ccc(F)cc1 (stereo not drawn) | inactive: 3.12%

Row | SMILES | inhibition
22 | CC(C)(C)c1ccc(OP(C)(=O)O)cc1 | inactive: 18.4%
23 | COc1ccccc1OP(C)(=O)Nc1ccccc1Br (stereo not drawn) | inactive: 10.7%
24 | CP(=O)(Oc1ccccc1)N1CCOC1=O (stereo not drawn) | inactive: -8.8%
25 | CCc1ccc(OP(C)(=O)Nc2cccnc2)cc1 (stereo not drawn) | inactive: -1.78%
26 | COc1ccccc1OP(C)(=O)Nc1c(C)n(C)n(-c2ccccc2)c1=O (stereo not drawn) | inactive: -5.96%
27 | O=C(OCCCN1CCCC1)C(O)(c1ccccc1)C1CCCCC1 (stereo not drawn) | inactive: 5.71%
28 | CCN(CC)CC(O)COC(=O)C(O)(c1ccccc1)C1CCCCC1 (stereo not drawn) | inactive: -18.1%
29 | COc1ccc(OP(C)(=O)Nc2ccc(Br)cc2)cc1 (stereo not drawn) | inactive: -12.5%
30 | CP(=O)(OC12CC3CC(CC(C3)C1)C2)OC12CC3CC(CC(C3)C1)C2 | inactive: 9.34%
31 | CCOC(=O)c1ccc(NP(C)(=O)Oc2ccc(Cl)cc2)cc1 (stereo not drawn) | inactive: 11.2%
32 | CP(=O)(OCCOc1ccccc1)OCCOc1ccccc1 | inactive: -10.9%
33 | CP(=O)(Nc1ccc(Cl)cc1Cl)Oc1ccccc1 (stereo not drawn) | inactive: -1.95%
34 | Cc1nc2ccc3ccccc3c2o1.O=[N+]([O-])c1cc([N+](=O)[O-])c(O)c([N+](=O)[O-])c1 | inactive: 1.03%
35 | COc1ccc(OP(C)(=O)Nc2ccccc2Br)cc1 (stereo not drawn) | inactive: -2.29%
36 | COc1ccccc1OP(C)(=O)Nc1ccc(C)c(C)c1 (stereo not drawn) | inactive: -5.14%
37 | Cc1cc(C)cc(OP(C)(=O)Nc2cccc(C(F)(F)F)c2)c1 (stereo not drawn) | inactive: 10.8%
38 | CCc1ccc(OP(C)(=O)O)cc1 | inactive: -9.68%
39 | CP(=O)(Nc1ccccn1)Oc1ccccc1 (stereo not drawn) | inactive: -1.04%
40 | COc1ccccc1OP(C)(=O)Nc1ccc(C)cc1C (stereo not drawn) | inactive: -7.03%
41 | O=[N+]([O-])c1cc([N+](=O)[O-])c(Nc2ccccn2)c([N+](=O)[O-])c1 | inactive: -8.8%
42 | Cc1c(NP(C)(=O)Oc2ccc(C(C)C)cc2)c(=O)n(-c2ccccc2)n1C (stereo not drawn) | inactive: -3.31%

Row | SMILES | inhibition
43 | CN(C)CCOC(=O)C(O)(c1ccccc1)C1CCCC1 (stereo not drawn) | inactive: -2.13%
44 | COc1ccc(OP(C)(=O)Nc2ccccn2)cc1 (stereo not drawn) | inactive: -11%
45 | COc1ccccc1OP(C)(=O)Nc1ccc(Br)cc1 (stereo not drawn) | inactive: -19%
46 | CCN(CC)CCCOC(=O)C(O)(c1ccccc1)c1ccccc1 | inactive: 7.69%
47 | COc1ccccc1OP(C)(=O)Nc1cc(Cl)ccc1C (stereo not drawn) | inactive: 1.07%
48 | COc1ccc(OP(C)(=O)Nc2cccc(F)c2)cc1 (stereo not drawn) | inactive: 10.9%
49 | Cc1cc(C)cc(OP(C)(N)=O)c1 (stereo not drawn) | inactive: -17.5%
50 | CCOC(=O)c1ccc(NP(C)(=O)Oc2ccccc2)cc1 (stereo not drawn) | inactive: -2.78%
51 | COc1ccccc1OP(C)(=O)Nc1ccc(C)cc1 (stereo not drawn) | inactive: -22.4%
52 | Cc1ccc(NP(C)(=O)Oc2ccccc2)c(C)c1 (stereo not drawn) | inactive: -14%
53 | CC(C)(C)c1ccc(OP(C)(=O)Nc2ccc(SC(F)(F)F)cc2)cc1 (stereo not drawn) | inactive: -2.6%
54 | Cc1cccc(C)c1OP(C)(N)=O (stereo not drawn) | inactive: -3.42%
55 | O=[N+]([O-])c1ccc2c(c1)C=Nc1ccccc1O2 | inactive: -18.9%
56 | COc1ccccc1OP(C)(=O)Nc1ccccc1 (stereo not drawn) | inactive: -6.88%
57 | CP(=O)(Nc1ccccc1Br)Oc1ccccc1 (stereo not drawn) | inactive: 4.43%
58 | CP(=S)(Nn1cnnc1)Oc1ccccc1 (stereo not drawn) | inactive: -14.3%
59 | CP(=O)(Nc1ccccn1)Oc1ccc(Cl)cc1 (stereo not drawn) | inactive: 1.02%
60 | CCOP(C)(=S)SCC(=O)NC(C)C(=O)O (stereo not drawn) | inactive: -12.3%
61 | CCOC(=O)c1ccc(NP(C)(=O)Oc2ccc(OC)cc2)cc1 (stereo not drawn) | inactive: -8.3%
62 | CCc1ccc(OP(C)(=O)N2CCN(c3ccc([N+](=O)[O-])cc3)CC2)cc1 (stereo not drawn) | inactive: 11.2%
63 | CP(=O)(NC(=O)Nc1ccccc1)Oc1ccccc1 (stereo not drawn) | inactive: 5.8%

Row | SMILES | inhibition
64 | Cc1cc(C)cc(OP(C)(=O)Nc2ccc(SC(F)(F)F)cc2)c1 (stereo not drawn) | inactive: -22.6%
65 | CP(=O)(Nc1ccc(SC(F)(F)F)cc1)Oc1ccc(Cl)cc1 (stereo not drawn) | inactive: -6.58%
66 | Cc1cccc(C)c1OP(C)(=O)Nc1ccc(SC(F)(F)F)cc1 (stereo not drawn) | inactive: -7.21%
67 | CP(=O)(Oc1ccccc1)OC(c1ccccc1)C(F)(F)F (stereo not drawn) | inactive: -7.73%
68 | Cc1nc2ccc3ccccc3c2s1.O=[N+]([O-])c1cc([N+](=O)[O-])c(O)c([N+](=O)[O-])c1 | inactive: -6.13%
69 | O=[N+]([O-])c1cc([N+](=O)[O-])c(-n2nnc3ccccc32)c([N+](=O)[O-])c1 | inactive: -4.85%
70 | CP(=O)(Nc1ccc(SC(F)(F)F)cc1)Oc1ccccc1 (stereo not drawn) | inactive: -3.54%
71 | CCCOc1ccc(NP(C)(=O)Oc2ccc(Cl)cc2)cc1 (stereo not drawn) | inactive: -3.6%
72 | CN1CCCCC1COC(=O)C1(O)c2ccccc2CCc2ccccc21 (stereo not drawn) | inactive: -5.67%
73 | COc1ccccc1OP(C)(=O)Nc1c(C)cccc1C (stereo not drawn) | inactive: -11.4%
74 | O=[N+]([O-])c1cc([N+](=O)[O-])c(Nc2nnnn2CCO)c([N+](=O)[O-])c1 | inactive: -3.19%
75 | CCOC(=O)C(CC)C1=NC(C)(C)Cc2ccccc21.O=[N+]([O-])c1cc([N+](=O)[O-])c(O)c([N+](=O)[O-])c1 (stereo not drawn) | inactive: 0.11%
76 | CC1=NCCc2c1[nH]c1ccccc21.O=[N+]([O-])c1cc([N+](=O)[O-])c(O)c([N+](=O)[O-])c1 | inactive: -4.49%
77 | O=C(O)c1cccc(Nc2c([N+](=O)[O-])cc([N+](=O)[O-])cc2[N+](=O)[O-])c1 | inactive: -14.5%
78 | CP(=O)(Nc1cccc(Br)c1)Oc1ccccc1 (stereo not drawn) | inactive: -4.44%
79 | Cc1cc(C)cc(OP(C)(=O)Nc2ccccn2)c1 (stereo not drawn) | inactive: -3.29%
80 | Cc1ccc(C)c(NP(C)(=O)Oc2ccccc2)c1 (stereo not drawn) | inactive: -5.49%
81 | Cc1cc(C)cc(OP(C)(=O)Nc2ccc(C)cc2C)c1 (stereo not drawn) | inactive: -1.53%
82 | CCOC(=O)c1ccc(NP(C)(=O)Oc2cc(C)cc(C)c2)cc1 (stereo not drawn) | inactive: -11.1%
83 | COc1ccccc1OP(C)(=O)Nc1cccc(Br)c1 (stereo not drawn) | inactive: -5.42%

From PubChem BioAssay AID1510 (The Scripps Research Institute Molecular Screening Center, 2009)
